## Permeability data for macrocyclic peptides

Values of Townsend et al. 2020, doi:10.26434/chemrxiv.13335941.v1, as listed in CycPeptMPDB.

PAMPA measures passive passage through an artificial lipid membrane. Permeability is in 10^-6 cm/s, converted from the database's log10 values; higher is more permeable.

compound | PAMPA (10^-6 cm/s)
CC(C)C[C@@H]1NC(=O)[C@H](C)N(C)C(=O)[C@H](Cc2ccccc2)NC(=O)[C@@H](CC(C)C)NC(=O)[C@@H]2CCCN2C(=O)CN(Cc2ccccc2)C1=O | 1.5
CC(C)C[C@@H]1NC(=O)C[C@H](Cc2ccccc2)NC(=O)[C@@H]2CCCN2C(=O)[C@H](Cc2ccccc2)NC(=O)[C@H](CC(C)C)NC(=O)[C@@H]2CCCN2C(=O)C[C@H](Cc2ccccc2)NC1=O | 1.5
CCCN1CC(=O)N[C@@H](CC(C)C)C(=O)N(C)[C@@H](CC(C)C)C(=O)N2CCC[C@@H]2C(=O)N[C@H](CC(C)C)C(=O)N[C@@H](Cc2ccccc2)C(=O)N2CCC[C@H]2C1=O | 1.3
CC(C)C[C@@H]1C(=O)N[C@@H](Cc2ccccc2)CC(=O)N2CCC[C@H]2C(=O)N(C)[C@H](CC(C)C)C(=O)N[C@@H](Cc2ccccc2)C(=O)N2CCC[C@@H]2C(=O)N(C)[C@@H](C)C(=O)N1C | 5.1
CC(C)C[C@@H]1NC(=O)[C@H]2CCCN2C(=O)[C@H](CC(C)C)NC(=O)[C@H](CC(C)C)N(C)C(=O)[C@H](C)N(C)C(=O)[C@H]2CCCN2C(=O)[C@H](Cc2ccccc2)NC1=O | 3.3
CC(C)C[C@@H]1NC(=O)[C@H](C)NC(=O)[C@H](Cc2ccccc2)NC(=O)[C@H](CC(C)C)NC(=O)[C@@H]2CCCN2C(=O)C[C@H](Cc2ccccc2)NC1=O | 1.1
CC(C)C[C@@H]1NC(=O)[C@@H](C)N(C)C(=O)[C@@H]2CCCN2C(=O)[C@H](Cc2ccccc2)NC(=O)[C@@H](CC(C)C)N(C)C(=O)[C@@H]2CCCN2C(=O)[C@H](CC(C)C)N(C)C1=O | 0.95
CC(C)C[C@@H]1NC(=O)C[C@H](Cc2ccccc2)NC(=O)[C@@H]2CCCN2C(=O)[C@H](Cc2ccccc2)NC(=O)[C@H](CC(C)C)N(C)C(=O)[C@@H]2CCCN2C(=O)CN(Cc2ccccc2)C1=O | 2.3
CC(C)C[C@@H]1NC(=O)[C@H](CC(C)C)N(C)C(=O)[C@H](C)N(C)C(=O)[C@H](Cc2ccccc2)NC(=O)[C@@H](CC(C)C)NC(=O)[C@@H]2CCCN2C1=O | 1.9
CCCN1CC(=O)N(C)[C@@H](CC(C)C)C(=O)N[C@@H](CC(C)C)C(=O)N2CCC[C@H]2C(=O)N(C)[C@@H](CC(C)C)C(=O)N[C@@H](Cc2ccccc2)C1=O | 15
CCCN1CC(=O)N[C@@H](CC(C)C)C(=O)N(C)[C@@H](CC(C)C)C(=O)N2CCC[C@H]2C(=O)N[C@@H](CC(C)C)C(=O)N[C@@H](Cc2ccccc2)C(=O)N2CCC[C@@H]2C1=O | 4.7
CC(C)C[C@@H]1C(=O)N2CCC[C@@H]2C(=O)N(C)[C@H](CC(C)C)C(=O)N[C@@H](Cc2ccccc2)C(=O)N2CCC[C@@H]2C(=O)N[C@H](C)C(=O)N(C)[C@H](CC(C)C)C(=O)N1C | 0.76
CC(C)C[C@H]1NC(=O)[C@H](C)N(C)C(=O)[C@H](Cc2ccccc2)NC(=O)CN(Cc2ccccc2)C(=O)[C@@H]2CCCN2C(=O)C[C@H](Cc2ccccc2)NC1=O | 0.68
CC(C)C[C@@H]1C(=O)N[C@@H](Cc2ccccc2)CC(=O)N2CCC[C@H]2C(=O)N(C)[C@@H](CC(C)C)C(=O)N[C@@H](Cc2ccccc2)C(=O)N2CCC[C@@H]2C(=O)N[C@@H](C)C(=O)N1C | 1.1
CC(C)C[C@@H]1C(=O)N[C@H](CC(C)C)C(=O)N2CCC[C@@H]2C(=O)N(C)[C@H](CC(C)C)C(=O)N[C@@H](Cc2ccccc2)C(=O)N[C@@H](Cc2ccccc2)CC(=O)N1C | 8.1
CC(C)C[C@@H]1NC(=O)[C@@H]2CCCN2C(=O)[C@@H](CC(C)C)N(C)C(=O)[C@H](CC(C)C)NC(=O)[C@H](C)N(C)C(=O)[C@@H]2CCCN2C(=O)[C@H](Cc2ccccc2)NC1=O | 2.1
CC(C)C[C@@H]1NC(=O)[C@@H](C)NC(=O)[C@H](Cc2ccccc2)NC(=O)CN(Cc2ccccc2)C(=O)[C@H]2CCCN2C(=O)[C@@H](CC(C)C)N(C)C1=O | 1.3
CC(C)C[C@@H]1NC(=O)[C@@H](C)NC(=O)[C@H](Cc2ccccc2)NC(=O)CN(Cc2ccccc2)C(=O)[C@H]2CCCN2C(=O)CN(Cc2ccccc2)C1=O | 1.8
CC(C)C[C@@H]1NC(=O)CN(Cc2ccccc2)C(=O)[C@@H](C)N(C)C(=O)[C@H]2CCCN2C(=O)[C@H](Cc2ccccc2)NC(=O)CN(Cc2ccccc2)C(=O)[C@@H]2CCCN2C1=O | 2.3
CC(C)C[C@@H]1NC(=O)[C@@H]2CCCN2C(=O)C[C@H](Cc2ccccc2)NC(=O)[C@H](CC(C)C)N(C)C(=O)[C@@H](C)NC(=O)[C@H](Cc2ccccc2)NC1=O | 1
CC(C)C[C@@H]1C(=O)N2CCC[C@H]2C(=O)N(C)[C@@H](CC(C)C)C(=O)N[C@@H](Cc2ccccc2)C(=O)N2CCC[C@H]2C(=O)N[C@@H](C)C(=O)N(C)[C@@H](CC(C)C)C(=O)N1C | 9.5
CCCN1CC(=O)N(Cc2ccccc2)CC(=O)N[C@H](CC(C)C)C(=O)N2CCC[C@H]2C(=O)N(C)[C@@H](CC(C)C)C(=O)N[C@@H](Cc2ccccc2)C(=O)N2CCC[C@H]2C1=O | 4
CC(C)C[C@@H]1C(=O)N(C)[C@H](CC(C)C)C(=O)N2CCC[C@H]2C(=O)N[C@H](CC(C)C)C(=O)N[C@@H](Cc2ccccc2)C(=O)N2CCC[C@@H]2C(=O)N[C@@H](C)C(=O)N1C | 0.6

The 2 lowest values of PAMPA among the entries above:

compound	PAMPA (10^-6 cm/s)
CC(C)C[C@@H]1C(=O)N(C)[C@H](CC(C)C)C(=O)N2CCC[C@H]2C(=O)N[C@H](CC(C)C)C(=O)N[C@@H](Cc2ccccc2)C(=O)N2CCC[C@@H]2C(=O)N[C@@H](C)C(=O)N1C	0.6
CC(C)C[C@H]1NC(=O)[C@H](C)N(C)C(=O)[C@H](Cc2ccccc2)NC(=O)CN(Cc2ccccc2)C(=O)[C@@H]2CCCN2C(=O)C[C@H](Cc2ccccc2)NC1=O	0.68

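Lipid, pH, incubation time, direction and concentration are not recorded in the data file. The list need not hold all peptides of the study. Entries at the database's floor value (log10 P of -10) are not listed.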